Tested on: CHOP, spliced XBP1, GADD34, ERCC1 transcripts
Experiment: qRT-PCR of UPR and CHOP target genes in UMSCC23 cells
Type: cell-based, human
Details: dose–response, 6 h

O=C(Nc1ccc(S(=O)(=O)N2CCC(Cl)CC2)cc1)c1ccc([N+](=O)[O-])o1 [Compound 12]
DNA repair gene ERCC1 expression: not increased | transcripts for CHOP: increased | transcripts for GADD34: increased | transcripts for spliced XBP1: increased
